Data on one compound can be found in PubChem BioAssay AID1224865 (Sanford-Burnham Center for Chemical Genomics, 2016).

By UniProt entry, the sequences of proteins in these tests, tags left out. Where a name states a change or a piece, a line headed by the entry shows the natural chain unless it says otherwise.
UniProt P41235: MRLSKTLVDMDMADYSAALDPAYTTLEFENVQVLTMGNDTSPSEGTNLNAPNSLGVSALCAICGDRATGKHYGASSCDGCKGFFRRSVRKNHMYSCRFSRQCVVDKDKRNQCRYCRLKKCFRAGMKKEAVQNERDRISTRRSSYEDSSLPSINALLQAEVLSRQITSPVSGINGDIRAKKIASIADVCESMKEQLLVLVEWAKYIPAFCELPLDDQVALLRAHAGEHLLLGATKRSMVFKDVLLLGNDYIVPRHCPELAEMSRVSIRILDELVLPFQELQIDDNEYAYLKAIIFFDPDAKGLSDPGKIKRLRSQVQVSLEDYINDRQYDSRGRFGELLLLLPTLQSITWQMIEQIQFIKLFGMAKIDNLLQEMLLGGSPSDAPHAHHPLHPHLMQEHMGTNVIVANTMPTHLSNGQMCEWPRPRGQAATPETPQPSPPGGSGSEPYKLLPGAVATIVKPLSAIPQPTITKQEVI

SMILES strings stand for the structures. Only a part is listed here, and it is no random draw. The source made the active and inactive calls. Rule as the data show it: active = activity change above about 30% (passing the limit was not always enough); inactive = the rest.

The experiment deals with Hepatocyte nuclear factor 4-alpha (Homo sapiens) (UniProt P41235). Nature of the experiment: HNF4-alpha DNA association modulation – biochemical, fluorescence polarization, FITC-DNA, primary screen (AID 1224865). The conditions noted are these: HNF4a-FITC DNA binding, 1 h, at 10 µM, stronger effect = higher value.
With `Nc1cccc2c([As](=O)(O)O)cccc12`, the activity change was active: 56.4%.
